We go through 9 compounds from patent publication US12077555B2, “STAT degraders and uses thereof” (Kymera Therapeutics, Inc., priority 2019, dated 2024).

The chains behind the UniProt entries cited, without tags or fusion partners.
UniProt P40763, whole entry: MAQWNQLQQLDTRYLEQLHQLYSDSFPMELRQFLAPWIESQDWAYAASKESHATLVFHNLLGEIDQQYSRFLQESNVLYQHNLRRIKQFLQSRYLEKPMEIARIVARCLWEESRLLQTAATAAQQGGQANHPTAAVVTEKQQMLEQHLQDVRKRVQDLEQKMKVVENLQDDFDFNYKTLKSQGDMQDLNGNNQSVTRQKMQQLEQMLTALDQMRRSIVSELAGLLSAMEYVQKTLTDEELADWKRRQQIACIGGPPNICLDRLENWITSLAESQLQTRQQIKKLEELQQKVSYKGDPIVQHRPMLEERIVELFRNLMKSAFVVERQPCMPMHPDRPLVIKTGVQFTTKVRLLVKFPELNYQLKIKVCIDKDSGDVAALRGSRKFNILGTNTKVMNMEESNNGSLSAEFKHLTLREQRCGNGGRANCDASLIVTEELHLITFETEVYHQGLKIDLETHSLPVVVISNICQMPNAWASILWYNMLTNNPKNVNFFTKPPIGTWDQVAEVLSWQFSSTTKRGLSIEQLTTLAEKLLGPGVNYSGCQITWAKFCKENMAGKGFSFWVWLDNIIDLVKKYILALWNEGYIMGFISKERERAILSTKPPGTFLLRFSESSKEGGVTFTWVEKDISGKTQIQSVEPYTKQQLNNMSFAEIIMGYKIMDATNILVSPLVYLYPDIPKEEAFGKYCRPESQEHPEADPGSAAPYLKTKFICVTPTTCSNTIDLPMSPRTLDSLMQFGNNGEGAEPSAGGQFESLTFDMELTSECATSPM

Test [1] concerns the target T1, STAT3 (Homo sapiens, UniProt P40763). Put plainly: Quantitation of STAT3 degradation in A549 cells by Western blot. Type of test: cell-based. As for the experimental part: Degradation of total cellular STAT3 protein in A549 was quantitatively measured using SDS-PAGE and Western blot analysis. A549 cells (5×10^5 cells/well, 2 mL) were seeded into 6-well plates and were incubated in the incubator under 5% CO2 overnight to reach ˜80% confluency. The next day, the culture medium was changed with 1 ml fresh media. Then, 1 mL of media containing 2× compound solution was added into the well to make the final concentration of 30 μM, 10 μM, 3 μM, 1 μM, 0.3 μM and 0 μM (DMSO). The media was thoroughly mixed and incubated for 24 hours at 37° C. under 5% CO2. Then, the culture media was removed from the assay plates and the cells were washed with ice-cold PBS twice. To prepare cell lysates, 200 ul pre-chilled RIPA lysis buffer (Boston BioProducts BP-115D) with protease/phosphatase inhibitor (Roche 05892791001/Roche 04906837001) was added directly into the well to lyse the cells for 20 minutes on ice. The cell lysates were then transferred to centrifuge tubes. Insoluble part of lysates was removed by centrifuging the lysates at 13000 rpm for 20 minutes. The supernatant was then collected and mixed with 5× loading buffer (Beyotime Bio P0015) to make the final samples for SDS-PAGE analysis. The samples were heated at 100° C. for 10 minutes and cool to room temperature before centrifuging at 13000 rpm for 20 minutes. To analyze the samples by SDS-PAGE, 10 ul samples were loaded onto SDS-PAGE gel (Novex, WG1403BOX) and the SDS-PAGE gel was run for 20 minutes at 80 V, then at 120 V for 1.5 hours. The SDS-PAGE gel was then transferred to nitrocellulose membrane using the wet-transfer method at 250 mA for 1.5 hours. The membrane was then blocked with LI-COR blocking buffer (LI-COR, 927-50000) for 1 hour and was probed with primary antibody (mouse anti-STAT3 (124H6) (CST #91395) 1:2000 or mouse anti-beta-Actin (8H10D10) (CST #3700) 1:10000) at 4° C. overnight. The membrane was then washed three times with TBST buffer and probed with secondary antibody (anti-mouse IgG (LI-COR, 926-68070), 1:5000) for 1 hour at room temperature. The membrane was then scanned on a LI-COR Odyssey instrument and was quantified using Image Studio Version 5.2. Concentration at 50% degradation (DC50) was calculated by fitting dose dependent degradation data using a sigmoidal equation using GraphPad Prism Version 8.0.

Test [2] deals with T1, STAT3. Put plainly: STAT3 HiBiT degradation assay in transfected A549 cells. To be noted: read-out: STAT3 HiBiT A549 degradation 24 h: Average external-Abs DC50, A549, 24 h. As for the experimental part:
Compound preparation and Cell seeding: The transfected A549 cells were harvested from dish into cell culture medium and cell numbers counted. Cells were diluted with culture medium to the desired density and 30 μL of cell suspension (about 2000 cells/well) were added into each well of a 384-well cell culture plate as designated and transferred into 37° C. 5% CO2 incubator for 24 h. Compounds were dissolved to 10 mM stock solution and 12 μL of the stock solution was transferred to a 384 LDV-plate. 3 fold, 10-point dilution was performed by transferring 4 μL compound into 8 μL DMSO using a TECAN (EVO200) liquid handler. 30 μL of diluted compound from compound source plate was transferred into the cell plate as designated by using Echo550 and transferred into 37° C. 5% CO2 incubator for 24 h.
Detection: Plates were removed from incubators and equilibrated at room temperature for 15 minutes. Nano-Glo Hibit Lytic Detection reagent (Promega Cat #N3040) was thawed and equilibrated to room temperature before the experiment. 30 μL of Nano-Glo Hibit Lytic Detection reagent was added into each well to be detected. The plates were held at room temperature for 10 min followed by reading on EnSpire.
Data analysis: The remaining activity was calculated following the formula: Remaining Activity (%)=100%×(Lumsample−LumNC)/(LumPC−LumNC). […]

A further test has as its system SU-DHL-1 tumor cells. Kind of test: Xenograph tumor study, SU-DHL-1. Conditions: SUDHL-1 xenograph, IP, 2.5-30 mg/kg, 2 days on/5 days off, tested form: diammonium. As to the method:
Animals: 50 6-8 week old female NOD SCID mice weighing 18 to 20 grams. 25 mice were used in each study.
Method for Tumor Inoculation: Each mouse was inoculated subcutaneously with SU-DHL-1 tumor cells (1×107+Matrigel) or SUP-M2 tumor cells (5×106+Matrigel) in 0.1 ml of RPMI1640 medium supplemented with 10% FBS, 100 U/ml penicillin and […] streptomycin for tumor development. Mice were then assigned to groups such that the mean tumor volume was the same for each treatment group and time point. […] Vehicle was 25% HP-β-CD in water adjusted to pH 7.4.
Measurement Parameters: Study animals were monitored not only for tumor growth but also behavior such as mobility, food and water consumption (by cage side checking only), body weight (BW), eye/hair matting and any other abnormal effect. Any mortality and/or abnormal clinical signs was recorded. Sponsor was notified immediately if abnormal clinical signs, or if tolerability issues were observed. Body weights of all animals were measured and recorded twice per week. The measurement of tumor size was conducted twice weekly with a caliper and recorded. The tumor volume (mm3) was estimated using the formula: TV=a×b2/2, where “a” and “b” are long and short diameters of a tumor, respectively.

[3] abbreviates: read-out: A549 DC50, 24 hours, tested up to 30 μM or 10 μM.
Setting [4] is: read-out: A549 DC50, 24 hours, tested up to 30 μM or 10 μM, tested form: diammonium.

SMILES strings stand for the structures.

Consider `C/C(=C\C(=O)N[C@H]1CCc2cccc3c2N(C1=O)[C@H](C(=O)N[C@@H](CCC(N)=O)[C@@H](C)OCc1ccc(CCCOCCOCCCc2cccc4c2n(C)c(=O)n4C2CCC(=O)N(C)C2=O)cc1)C3)c1ccc(C(F)(F)P(=O)(OCOC(=O)C(C)(C)C)OCOC(=O)C(C)(C)C)cc1` (stereo partly shown), for which the half-maximal degradation concentration (DC50) at STAT3 [1] (setting [3]) is greater than 30 µM.

For `C/C(=C\C(=O)N[C@H]1CCc2cccc3c2N(C1=O)[C@H](C(=O)N[C@@H](CCC(N)=O)[C@@H](C)OCc1ccc(CCCCCOc2cc(-c4scnc4C)ccc2CNC(=O)[C@@H]2C[C@@H](O)CN2C(=O)[C@@H](NC(=O)C2(F)CC2)C(C)(C)C)cc1)C3)c1ccc(C(F)(F)P(=O)(OCOC(=O)C(C)(C)C)OCOC(=O)C(C)(C)C)cc1`, the half-maximal degradation concentration (DC50) on STAT3 [1] (setting [3]) is greater than 30 µM. Consider `Cc1ncsc1-c1ccc(CNC(=O)[C@@H]2C[C@@H](O)CN2C(=O)[C@@H](NC(=O)CCCCCc2ccccc2CO[C@H](C)[C@H](CCC(N)=O)NC(=O)[C@@H]2Cc3cccc4c3N2C(=O)[C@@H](NC(=O)c2cc3cc(C(=O)P(=O)(O)O)ccc3[nH]2)CC4)C(C)(C)C)cc1`, for which the 50% degradation concentration (DC50) on STAT3 [1] (setting [4]) was less than 30 µM. As for `C/C(=C\C(=O)N[C@H]1CCc2cccc3c2N(C1=O)[C@H](C(=O)N[C@@H](CCC(N)=O)[C@@H](C)OCc1ccc(CCCNC(=O)CCc2ccc4c(c2)n(C)c(=O)n4C2CCC(=O)NC2=O)cc1)C3)c1ccc(C(F)(F)P(=O)(OCOC(=O)C(C)(C)C)OCOC(=O)C(C)(C)C)cc1` (stereo partly shown), the DC50 on STAT3 [1] (setting [3]) is greater than 30 µM.

Take `Cc1ncsc1-c1ccc(CNC(=O)[C@@H]2C[C@@H](O)CN2C(=O)[C@@H](NC(=O)CCCCCCCCCC(=O)N2CC[C@H]3CC[C@@H](C(=O)N[C@@H](CCC(N)=O)C(=O)NC(c4ccccc4)c4ccccc4)N3C(=O)[C@@H](NC(=O)c3cc4cc(C(=O)P(=O)(O)O)ccc4[nH]3)C2)C(C)(C)C)cc1`: at STAT3 [2], the DC50 was greater than 1 µM. In the case of `CC(=O)N1CC[C@H]2CC[C@@H](C(=O)N[C@@H](CCC(N)=O)COc3cccc(CCCCCC(=O)N[C@H](C(=O)N4C[C@H](O)C[C@H]4C(=O)N[C@@H](C)c4ccc(-c5scnc5C)cc4)C(C)(C)C)c3F)N2C(=O)[C@@H](NC(=O)c2cc3cc(C(=O)P(=O)(O)O)ccc3[nH]2)C1`, in the test on SU-DHL-1 tumor cells (5 days), the “tumor volume, 5 days” value is reported as “A (A<500 mm^3)”. Besides, in the test with SU-DHL-1 tumor cells (10 days), the “tumor volume, 10 days” value was “A (A<500 mm^3)”. The “tumor volume, 15 days” value in the test on SU-DHL-1 tumor cells (15 days) was “A (A<500 mm^3)”. Besides, in the test with SU-DHL-1 tumor cells (20 days), the “tumor volume, 20 days” value is on record as “A (A<500 mm^3)”. At STAT3 [2] (tested form: diammonium), the DC50 is less than 0.01 µM. Consider `CNC(=O)CC[C@H](NC(=O)[C@@H]1Cc2cccc3c2N1C(=O)[C@@H](NC(=O)/C=C(\C)c1ccc(C(F)(F)P(=O)(O)O)cc1)CC3)[C@@H](C)OCc1ccc(CCCCC(=O)N[C@H](C(=O)N2C[C@H](O)C[C@H]2C(=O)NCc2ccc(-c3scnc3C)cc2)C(C)(C)C)cc1`, for which the DC50 on STAT3 [1] (setting [4]) is greater than 30 µM.

With `C/C(=C\C(=O)N[C@H]1CCc2cccc3c2N(C1=O)[C@H](C(=O)N[C@@H](CCC(N)=O)[C@@H](C)OCc1ccc(CCCNC(=O)COCCOCCOCCCc2ccc4c(c2)n(C)c(=O)n4C2CCC(=O)NC2=O)cc1)C3)c1ccc(C(F)(F)P(=O)(OCOC(=O)C(C)(C)C)OCOC(=O)C(C)(C)C)cc1` (stereo partly shown), the DC50 at STAT3 [1] (setting [3]) is greater than 30 µM.

Take `C/C(=C\C(=O)N[C@H]1CCc2cccc3c2N(C1=O)[C@H](C(=O)N[C@@H](CCC(N)=O)[C@@H](C)OCc1ccc(CCCCC(=O)N[C@H](C(=O)N2C[C@H](O)C[C@H]2C(=O)N[C@@H](C)c2ccc(-c4scnc4C)cc2)C(C)(C)C)cc1)C3)c1ccc(C(F)(F)P(=O)(O)O)cc1`: the half-maximal degradation concentration (DC50) on STAT3 [1] (setting [4]) was less than 30 µM.
